Experimental data taken from PMC12678819, “Targeting bacterial kinases as a strategy to counteract antibiotic resistance” (2025).

Amino acid sequences for entries named in this document (tags omitted). A change or cut given only in a name is not applied to a line headed by its entry. Residues count along the entry.
UniProt Q16539, whole entry, looked up: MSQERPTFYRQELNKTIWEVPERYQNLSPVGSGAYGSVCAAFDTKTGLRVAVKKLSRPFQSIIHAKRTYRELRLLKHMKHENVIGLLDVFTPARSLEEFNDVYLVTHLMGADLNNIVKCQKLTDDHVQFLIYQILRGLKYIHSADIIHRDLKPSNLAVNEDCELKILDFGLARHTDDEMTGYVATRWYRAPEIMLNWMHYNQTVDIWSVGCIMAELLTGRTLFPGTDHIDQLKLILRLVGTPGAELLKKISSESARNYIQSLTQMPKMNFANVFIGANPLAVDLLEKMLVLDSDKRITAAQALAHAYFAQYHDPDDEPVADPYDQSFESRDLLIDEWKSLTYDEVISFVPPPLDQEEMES
UniProt Q96NX5, 23-277 limits assumed: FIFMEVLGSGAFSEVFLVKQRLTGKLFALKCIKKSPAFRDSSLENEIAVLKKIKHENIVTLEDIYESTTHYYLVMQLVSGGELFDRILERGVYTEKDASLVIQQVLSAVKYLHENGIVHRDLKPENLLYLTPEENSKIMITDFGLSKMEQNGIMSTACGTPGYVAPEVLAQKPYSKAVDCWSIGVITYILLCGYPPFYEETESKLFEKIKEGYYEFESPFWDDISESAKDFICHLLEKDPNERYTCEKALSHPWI
UniProt P34947, whole entry, looked up: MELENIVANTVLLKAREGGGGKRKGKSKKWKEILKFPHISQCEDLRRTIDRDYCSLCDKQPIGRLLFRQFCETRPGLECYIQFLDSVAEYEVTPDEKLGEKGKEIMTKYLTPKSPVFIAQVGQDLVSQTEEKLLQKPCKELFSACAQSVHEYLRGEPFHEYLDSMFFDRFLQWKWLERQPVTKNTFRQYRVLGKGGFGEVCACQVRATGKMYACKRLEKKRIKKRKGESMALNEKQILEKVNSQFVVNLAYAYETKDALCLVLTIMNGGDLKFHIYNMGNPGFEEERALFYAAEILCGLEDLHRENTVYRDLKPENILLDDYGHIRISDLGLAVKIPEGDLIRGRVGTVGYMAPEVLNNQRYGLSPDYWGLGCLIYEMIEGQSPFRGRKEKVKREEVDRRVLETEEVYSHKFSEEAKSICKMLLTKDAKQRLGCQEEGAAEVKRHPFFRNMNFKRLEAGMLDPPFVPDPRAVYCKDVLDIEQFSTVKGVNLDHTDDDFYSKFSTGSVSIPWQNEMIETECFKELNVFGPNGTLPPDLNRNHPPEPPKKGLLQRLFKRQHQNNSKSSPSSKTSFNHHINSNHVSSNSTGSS
UniProt Q9Y2H1, 90-453 limits assumed: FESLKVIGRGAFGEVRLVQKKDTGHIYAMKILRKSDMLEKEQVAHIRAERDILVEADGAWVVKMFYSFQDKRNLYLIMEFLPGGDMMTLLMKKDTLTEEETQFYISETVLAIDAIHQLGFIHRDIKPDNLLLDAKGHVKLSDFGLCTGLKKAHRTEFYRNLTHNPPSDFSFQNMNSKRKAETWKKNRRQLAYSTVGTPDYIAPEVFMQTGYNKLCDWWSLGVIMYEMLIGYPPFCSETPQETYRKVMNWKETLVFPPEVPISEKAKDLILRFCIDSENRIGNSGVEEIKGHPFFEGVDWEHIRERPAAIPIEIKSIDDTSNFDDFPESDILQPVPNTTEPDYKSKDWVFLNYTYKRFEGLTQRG
UniProt P45983, 1-364 limits assumed: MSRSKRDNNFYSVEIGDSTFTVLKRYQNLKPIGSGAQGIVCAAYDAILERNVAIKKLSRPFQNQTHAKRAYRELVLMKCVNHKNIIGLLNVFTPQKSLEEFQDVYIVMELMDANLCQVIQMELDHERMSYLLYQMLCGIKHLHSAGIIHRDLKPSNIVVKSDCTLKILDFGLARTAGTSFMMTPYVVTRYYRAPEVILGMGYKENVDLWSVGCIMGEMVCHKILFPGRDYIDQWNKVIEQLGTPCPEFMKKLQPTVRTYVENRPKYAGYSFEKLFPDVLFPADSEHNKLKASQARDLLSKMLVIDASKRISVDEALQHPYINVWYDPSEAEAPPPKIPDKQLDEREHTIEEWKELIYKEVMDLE
UniProt O15264: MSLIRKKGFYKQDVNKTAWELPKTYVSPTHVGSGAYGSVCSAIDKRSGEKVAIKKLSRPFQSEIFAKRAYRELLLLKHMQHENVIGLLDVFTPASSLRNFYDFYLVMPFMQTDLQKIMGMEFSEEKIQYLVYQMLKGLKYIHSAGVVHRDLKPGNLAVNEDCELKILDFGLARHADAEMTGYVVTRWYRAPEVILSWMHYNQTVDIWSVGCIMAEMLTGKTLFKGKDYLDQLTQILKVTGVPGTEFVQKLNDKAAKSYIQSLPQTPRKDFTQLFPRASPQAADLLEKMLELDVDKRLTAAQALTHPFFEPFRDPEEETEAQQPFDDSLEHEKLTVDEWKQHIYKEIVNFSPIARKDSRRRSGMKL
UniProt O14965, 122-403 limits assumed: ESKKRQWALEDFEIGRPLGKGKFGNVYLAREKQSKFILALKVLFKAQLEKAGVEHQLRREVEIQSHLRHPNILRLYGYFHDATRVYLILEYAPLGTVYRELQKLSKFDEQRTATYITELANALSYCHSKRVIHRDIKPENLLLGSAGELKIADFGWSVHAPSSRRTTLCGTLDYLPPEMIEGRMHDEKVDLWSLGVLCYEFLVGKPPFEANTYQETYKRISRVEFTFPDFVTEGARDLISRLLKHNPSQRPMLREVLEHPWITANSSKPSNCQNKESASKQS
UniProt P51955, 1-271 limits assumed: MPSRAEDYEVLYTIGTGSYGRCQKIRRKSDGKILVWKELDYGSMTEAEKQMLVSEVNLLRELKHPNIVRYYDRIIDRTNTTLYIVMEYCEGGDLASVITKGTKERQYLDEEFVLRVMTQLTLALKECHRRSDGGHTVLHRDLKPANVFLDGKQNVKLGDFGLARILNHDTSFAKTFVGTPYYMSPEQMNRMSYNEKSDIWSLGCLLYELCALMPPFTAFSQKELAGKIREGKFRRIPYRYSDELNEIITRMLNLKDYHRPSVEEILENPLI
UniProt P49759, 161-477 limits assumed: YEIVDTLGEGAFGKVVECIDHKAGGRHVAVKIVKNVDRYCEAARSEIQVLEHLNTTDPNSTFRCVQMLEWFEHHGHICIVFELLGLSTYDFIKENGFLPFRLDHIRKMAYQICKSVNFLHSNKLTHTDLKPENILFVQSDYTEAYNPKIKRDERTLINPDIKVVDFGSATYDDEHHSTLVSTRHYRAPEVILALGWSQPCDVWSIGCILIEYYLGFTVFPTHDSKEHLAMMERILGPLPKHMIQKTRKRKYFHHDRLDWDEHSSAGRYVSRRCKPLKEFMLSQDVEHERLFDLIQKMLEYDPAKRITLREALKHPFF
UniProt Q09013: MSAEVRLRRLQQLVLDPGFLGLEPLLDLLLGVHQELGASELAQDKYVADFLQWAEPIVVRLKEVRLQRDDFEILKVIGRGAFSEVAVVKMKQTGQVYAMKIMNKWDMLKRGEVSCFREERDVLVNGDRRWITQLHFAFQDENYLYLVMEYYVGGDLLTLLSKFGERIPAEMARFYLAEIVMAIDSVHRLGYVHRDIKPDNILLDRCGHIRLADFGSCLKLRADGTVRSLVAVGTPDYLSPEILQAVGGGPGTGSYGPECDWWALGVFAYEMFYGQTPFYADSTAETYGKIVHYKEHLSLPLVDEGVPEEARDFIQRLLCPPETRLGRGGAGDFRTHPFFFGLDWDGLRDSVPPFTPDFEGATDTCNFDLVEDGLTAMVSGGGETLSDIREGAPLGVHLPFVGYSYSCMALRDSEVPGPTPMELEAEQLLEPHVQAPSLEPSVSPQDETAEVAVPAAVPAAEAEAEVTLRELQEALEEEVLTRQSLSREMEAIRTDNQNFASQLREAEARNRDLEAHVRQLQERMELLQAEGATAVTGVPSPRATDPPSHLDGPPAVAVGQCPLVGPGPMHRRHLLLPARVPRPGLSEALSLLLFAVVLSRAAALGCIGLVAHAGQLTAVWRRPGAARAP
UniProt O75582, 426-687 limits assumed: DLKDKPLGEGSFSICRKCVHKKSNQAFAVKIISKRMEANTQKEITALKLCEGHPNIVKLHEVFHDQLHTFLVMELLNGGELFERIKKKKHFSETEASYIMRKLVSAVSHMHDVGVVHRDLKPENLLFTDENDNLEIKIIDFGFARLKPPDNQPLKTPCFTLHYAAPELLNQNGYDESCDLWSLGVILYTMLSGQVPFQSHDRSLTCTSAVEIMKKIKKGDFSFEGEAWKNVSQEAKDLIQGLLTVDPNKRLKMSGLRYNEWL
UniProt O94804, 18-317 limits assumed: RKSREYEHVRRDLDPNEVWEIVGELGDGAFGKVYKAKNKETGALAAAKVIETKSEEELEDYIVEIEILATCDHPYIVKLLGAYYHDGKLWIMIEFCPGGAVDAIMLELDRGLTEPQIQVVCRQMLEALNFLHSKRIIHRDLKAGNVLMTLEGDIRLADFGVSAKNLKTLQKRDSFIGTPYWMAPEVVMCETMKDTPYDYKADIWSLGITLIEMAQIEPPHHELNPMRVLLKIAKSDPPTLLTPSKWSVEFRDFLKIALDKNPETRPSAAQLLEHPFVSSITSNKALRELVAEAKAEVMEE
UniProt P48730, 9-277 limits assumed: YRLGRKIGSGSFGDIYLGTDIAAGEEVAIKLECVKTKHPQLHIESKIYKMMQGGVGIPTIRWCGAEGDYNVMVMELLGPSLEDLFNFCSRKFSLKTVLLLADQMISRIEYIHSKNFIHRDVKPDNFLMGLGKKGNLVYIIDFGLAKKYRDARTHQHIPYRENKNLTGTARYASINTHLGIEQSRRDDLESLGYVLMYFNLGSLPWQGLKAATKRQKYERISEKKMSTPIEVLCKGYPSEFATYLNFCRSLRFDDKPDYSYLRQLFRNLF
UniProt P68400, 39-324 limits assumed: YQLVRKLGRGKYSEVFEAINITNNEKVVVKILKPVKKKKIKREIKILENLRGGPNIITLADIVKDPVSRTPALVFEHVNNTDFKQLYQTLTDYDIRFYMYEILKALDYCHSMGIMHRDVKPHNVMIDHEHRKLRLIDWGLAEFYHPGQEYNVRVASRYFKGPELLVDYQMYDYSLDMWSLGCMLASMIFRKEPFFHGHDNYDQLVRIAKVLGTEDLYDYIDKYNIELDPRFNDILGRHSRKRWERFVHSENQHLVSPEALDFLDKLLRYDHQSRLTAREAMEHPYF
UniProt Q12866, 587-858 limits assumed: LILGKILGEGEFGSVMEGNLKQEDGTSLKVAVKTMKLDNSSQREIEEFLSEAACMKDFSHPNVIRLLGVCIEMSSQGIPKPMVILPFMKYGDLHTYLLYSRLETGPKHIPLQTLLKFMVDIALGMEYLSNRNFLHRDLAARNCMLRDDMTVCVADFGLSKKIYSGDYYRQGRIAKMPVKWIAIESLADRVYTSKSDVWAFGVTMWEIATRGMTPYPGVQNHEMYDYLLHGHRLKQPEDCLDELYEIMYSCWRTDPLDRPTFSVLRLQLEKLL
UniProt P17948, 801-1158 limits assumed: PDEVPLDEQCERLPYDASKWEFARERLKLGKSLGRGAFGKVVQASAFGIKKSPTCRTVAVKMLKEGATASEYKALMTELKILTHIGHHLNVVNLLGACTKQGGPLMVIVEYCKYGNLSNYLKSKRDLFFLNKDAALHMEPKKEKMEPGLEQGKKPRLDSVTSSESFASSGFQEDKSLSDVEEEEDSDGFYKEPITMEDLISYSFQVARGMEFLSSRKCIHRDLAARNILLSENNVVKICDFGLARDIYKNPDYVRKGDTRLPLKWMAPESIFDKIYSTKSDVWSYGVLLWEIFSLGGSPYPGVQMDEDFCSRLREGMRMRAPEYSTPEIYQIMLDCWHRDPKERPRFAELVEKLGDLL
UniProt O95747, 17-291 limits assumed: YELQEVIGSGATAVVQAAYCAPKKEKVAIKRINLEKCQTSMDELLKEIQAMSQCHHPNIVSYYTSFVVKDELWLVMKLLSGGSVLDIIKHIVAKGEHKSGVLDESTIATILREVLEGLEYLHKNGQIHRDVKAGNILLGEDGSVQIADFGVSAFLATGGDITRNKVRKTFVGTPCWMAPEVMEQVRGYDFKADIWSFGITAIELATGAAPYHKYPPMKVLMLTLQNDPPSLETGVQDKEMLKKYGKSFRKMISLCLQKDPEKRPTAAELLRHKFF
UniProt P29317, 613-875 limits assumed: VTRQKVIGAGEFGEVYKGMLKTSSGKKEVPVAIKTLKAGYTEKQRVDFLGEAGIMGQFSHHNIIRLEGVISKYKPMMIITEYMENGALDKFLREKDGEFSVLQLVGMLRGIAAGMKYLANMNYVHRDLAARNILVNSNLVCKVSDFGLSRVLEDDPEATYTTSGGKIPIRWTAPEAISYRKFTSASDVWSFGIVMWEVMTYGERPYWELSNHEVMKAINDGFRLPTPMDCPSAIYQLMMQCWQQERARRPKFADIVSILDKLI
UniProt Q15375, 590-899 limits assumed: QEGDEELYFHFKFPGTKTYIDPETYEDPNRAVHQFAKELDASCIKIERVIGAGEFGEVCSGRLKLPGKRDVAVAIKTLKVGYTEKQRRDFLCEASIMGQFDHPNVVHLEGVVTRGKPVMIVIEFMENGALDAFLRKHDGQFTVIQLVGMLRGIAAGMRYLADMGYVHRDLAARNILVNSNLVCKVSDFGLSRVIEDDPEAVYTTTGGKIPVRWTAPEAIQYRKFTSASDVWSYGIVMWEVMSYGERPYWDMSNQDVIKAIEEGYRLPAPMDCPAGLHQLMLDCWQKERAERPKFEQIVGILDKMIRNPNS

Legend:
Test in all cases: DSF kinase panel
Conditions in all cases: 10 μM
PAK4 = PAK4 (Homo sapiens, UniProt O96013)
NEK1 = NEK1 (Homo sapiens, UniProt Q96PY6)
DYRK1A = DYRK1A (Homo sapiens, UniProt Q13627)
PCTAIRE1 = PCTAIRE1 (Homo sapiens, UniProt Q00536)
p38a = p38a (Homo sapiens, UniProt Q16539)
SRC = SRC (Homo sapiens, UniProt P12931)
CSNK1E = CSNK1E (Homo sapiens, UniProt P49674)
BRPF1 = BRPF1 (Homo sapiens, UniProt P55201)
CAMK1G = CAMK1G (Homo sapiens, UniProt Q96NX5)
GPRK5 = GPRK5 (Homo sapiens, UniProt P34947)
MARK4 = MARK4 (Homo sapiens, UniProt Q96L34)
NDR2 = NDR2 (Homo sapiens, UniProt Q9Y2H1)
JNK1 = JNK1 (Homo sapiens, UniProt P45983)
p38d = p38d (Homo sapiens, UniProt O15264)
FES = FES (Homo sapiens, UniProt P07332)
MELK = MELK (Homo sapiens, UniProt Q14680)
MST1 = MST1 (Homo sapiens, UniProt Q13043)
AurA = AurA (Homo sapiens, UniProt O14965)
ULK3 = ULK3 (Homo sapiens, UniProt Q6PHR2)
NEK2 = NEK2 (Homo sapiens, UniProt P51955)
TTK = TTK (Homo sapiens, UniProt P33981)
CLK1 = CLK1 (Homo sapiens, UniProt P49759)
DAPK1 = DAPK1 (Homo sapiens, UniProt P53355)
ATK3 = ATK3 (Homo sapiens, UniProt Q9Y243)
DMPK1 = DMPK1 (Homo sapiens, UniProt Q09013)
MSK1_b = MSK1_b (Homo sapiens, UniProt O75582)
LOK = LOK (Homo sapiens, UniProt O94804)
CK1d = CK1d (Homo sapiens, UniProt P48730)
STLK3 = STLK3 (Homo sapiens, UniProt Q9UEW8)
CDK2 = CDK2 (Homo sapiens, UniProt P24941)
CK2a1 = CK2a1 (Homo sapiens, UniProt P68400)
MER = MER (Homo sapiens, UniProt Q12866)
FLT1 = FLT1 (Homo sapiens, UniProt P17948)
ULK1 = ULK1 (Homo sapiens, UniProt O75385)
BMPR2 = BMPR2 (Homo sapiens, UniProt Q13873)
OSR1 = OSR1 (Homo sapiens, UniProt O95747)
EphA2 = EphA2 (Homo sapiens, UniProt P29317)
FECH = FECH (Homo sapiens, UniProt P22830)
CAMK2B = CAMK2B (Homo sapiens, UniProt Q13554)
SRPK1 = SRPK1 (Homo sapiens, UniProt Q96SB4)
DAPK3 = DAPK3 (Homo sapiens, UniProt O43293)
EPHA7 = EPHA7 (Homo sapiens, UniProt Q15375)

## C[C@@H](O)CCn1cc(-c2c(Cl)cnc3[nH]ccc23)nn1
PAK4
  ΔTm PAK4: 2.8 °C
NEK1
  ΔTm NEK1: -0.2 °C
DYRK1A
  ΔTm DYRK1A: 2.1 °C
PCTAIRE1
  ΔTm PCTAIRE1: 0.6 °C
p38a
  ΔTm p38a: -0.8 °C
SRC
  ΔTm SRC: 1.1 °C
CSNK1E
  ΔTm CSNK1E: 2.9 °C
BRPF1
  ΔTm BRPF1: -1.4 °C
CAMK1G
  ΔTm CAMK1G: 1.2 °C
GPRK5
  ΔTm GPRK5: 0.1 °C
MARK4
  ΔTm MARK4: 1.7 °C
NDR2
  ΔTm NDR2: -1.1 °C
JNK1
  ΔTm JNK1: 1.3 °C
p38d
  ΔTm p38d: 0.6 °C
FES
  ΔTm FES: 0.8 °C
MELK
  ΔTm MELK: 3.3 °C
MST1
  ΔTm MST1: 2.3 °C
AurA
  ΔTm AurA: 7.1 °C
ULK3
  ΔTm ULK3: 6.1 °C
NEK2
  ΔTm NEK2: -0.5 °C
TTK
  ΔTm TTK: 2.2 °C
CLK1
  ΔTm CLK1: 3.8 °C
DAPK1
  ΔTm DAPK1: 2.6 °C
ATK3
  ΔTm ATK3: -0.1 °C
DMPK1
  ΔTm DMPK1: 1.6 °C
MSK1_b
  ΔTm MSK1_b: 6.1 °C
LOK
  ΔTm LOK: -1.8 °C
CK1d
  ΔTm CK1d: 3.8 °C
STLK3
  ΔTm STLK3: 1.1 °C
CDK2
  ΔTm CDK2: 0.6 °C
CK2a1
  ΔTm CK2a1: 1.2 °C
MER
  ΔTm MER: 0.0 °C
FLT1
  ΔTm FLT1: 3.9 °C
ULK1
  ΔTm ULK1: 2.2 °C
BMPR2
  ΔTm BMPR2: 5.1 °C
OSR1
  ΔTm OSR1: 2.7 °C
EphA2
  ΔTm EphA2: -0.3 °C
FECH
  ΔTm FECH: -3.1 °C
CAMK2B
  ΔTm CAMK2B: 0.0 °C
SRPK1
  ΔTm SRPK1: 0.0 °C
DAPK3
  ΔTm DAPK3: 5.3 °C
EPHA7
  ΔTm EPHA7: 0.9 °C
